Columns and labels:
BaF3 FLT3-ITD cells = conditions: female nu/nu mice, 30 mpk p.o. once daily for 14 days in 5% hydroxypropylbetacyclodextrin
BaF3 FLT3-ITD/D835 cells = conditions: BaF3 FLT3-ITD/D835, female nu/nu mice, 30 mpk p.o. once daily for 14 days in 5% hydroxypropylbetacyclodextrin

Structure (SMILES): CC(C)(C)c1cc(NC(=O)Nc2ccc(-c3cn4c(n3)sc3cc(OCCN5CCOCC5)ccc34)cc2)no1 [AC220, quizartinib]
- Survival time to endpoint (TTE) (BaF3 FLT3-ITD cells): 34
- increased lifespan (% ILS) (BaF3 FLT3-ITD cells): 94%
- Survival time to endpoint (TTE) (BaF3 FLT3-ITD/D835 cells): 20
- increased lifespan (% ILS) (BaF3 FLT3-ITD/D835 cells): 25%
